{"source": "patent US10662060B2", "about": "“Manufacture of lipid-based nanoparticles using a dual asymmetric centrifuge” (priority 2004, dated 2020)", "assay": "Inclusion efficiency for albumin in liposomes (BCA test in supernatant after centrifugation)", "format": "physicochemical", "conditions": "EPC3/cholesterol 55/45, 3540 rpm 10 min", "description": "Within the context of the present invention, the “enclosure efficiency” is the ratio (percentage) of the amount of the measured substance (e.g., of an active substance) which is included in the lipid-based nanoparticles, associated to the nanoparticles or incorporated into the nanoparticles, to the total amount of the respective substance used for the formulation.\nInto six sterile glass vials (diameter 10 mm), 100 mg each of glass beads (diameter 1 mm) and 50 mg each of the mixture of hydrogenated egg phosphatidylcholine and cholesterol (55/45 mole %) existing as a solid solution was weighed. Into three of the vials, 75 μl each of an albumin solution was pipetted in concentrations of 1, 2 and 3 mg/ml. Into the fourth to sixth vials, 75 μl each of NaCl solution having a concentration of 0.9% was added. The closed vials were subjected to speed mixing at 3540 rpm for 10 minutes each. The three liposome gels loaded with albumin were redispersed with 250 μl each of NaCl solution. In contrast, the liposome gels prepared with saline only (vials 4-6) were redispersed with 175 μl of NaCl solution plus 75 μl of albumin solution (1, 2, 3 mg/ml). Subsequently, the thus formed liposomal dispersions were pipetted into suitable centrifuge tubes and centrifuged at 350,000 g, whereupon the liposomes sedimented. In the supernatant, the albumin concentration was subsequently determined by means of a BCA test (Interchim/Uptima, No. UP95424), and the inclusion efficiency was calculated. Result of inclusion efficiency for albumin in liposomes by speed mixing: […]"}
{"substance": "albumin", "values": [{"measurement": "inclusion efficiency for albumin in liposomes by speed mixing", "setting": "1 mg/ml albumin solution", "value": 60.9, "unit": "%"}, {"measurement": "inclusion efficiency for albumin in liposomes by speed mixing", "setting": "2 mg/ml albumin solution", "value": 70.9, "unit": "%"}, {"measurement": "inclusion efficiency for albumin in liposomes by speed mixing", "setting": "3 mg/ml albumin solution", "value": 71.8, "unit": "%"}]}
